# Values of other authors, collected in PMC4844575, “The influence of different metal-chelate conjugates of pentixafor on the CXCR4 affinity” (EJNMMI Research, 2016).
# Test system: OH1 human small cell lung cancer tumor-bearing mice
# Conditions: cited from earlier work
substance,measurement,setting,value
cyclo(-D-Tyr-N-Me-D-Orn(aminomethylbenzoyl (AMB)-DOTA)-L-Arg-L-2-Nal-Gly-) [[^68Ga]pentixafor],activity in the blood,1 h p.i.,1.08 % ± 0.27
same,uptake in CXCR4-expressing tissue (tumor),2 h p.i.,4.63 % ± 1.54
